Where two headings read alike, the source gives them in different places.
System: healthy volunteers
[1] = single dose 300 μg, plasma, geometric mean

L-Histidyl-L-seryl-L-glutaminylglycyl-L-threonyl-L-phenylalanyl-L-threonyl-L-seryl-L-alpha-aspartyl-(N6-[N-(1-oxohexadecyl)-L-gamma-gutamyl])L-lysy-L-sery-L-alpha-glutamyl-L-tyrosyl-L-leucyl-L-alpha-aspartyl-L-seryl-L-alpha-glutamyl-L-arginyl-L-alanyl-L-arginyl-L-alpha-L-aspartyl-L-phenylalanyl-L-valyl-L-alanyl-L-tryptophyl-L-leucyl-L-alpha-glutamyl-L-alanylglycylglycine [Peptide G933]
Subjects with TEAE: Abdominal pain (150 μg, N = 6): 0 | Subjects with TEAE: Application site erosion (150 μg, N = 6): 0 | Subjects with TEAE: Arrhythmia (150 μg, N = 6): 0 | Subjects with TEAE: Atrioventricular block second degree (150 μg, N = 6): 0 | Subjects with TEAE: Cardiac Disorders (150 μg, N = 6): 0 | Subjects with TEAE: Decreased appetite (150 μg, N = 6): 2 (33.3%) | Subjects with TEAE: Diarrhoea (150 μg, N = 6): 0 | Subjects with TEAE: Dizziness (150 μg, N = 6): 2 (33.3%) | Subjects with TEAE: Gastrointestinal Disorders (150 μg, N = 6): 5 (83.3%) | Subjects with TEAE: Headache (150 μg, N = 6): 1 (16.7%) | Subjects with TEAE: Immune System Disorders (150 μg, N = 6): 0 | Subjects with TEAE: Infections and infestations (150 μg, N = 6): 0 | Subjects with TEAE: Injury associated with device (150 μg, N = 6): 0 | Subjects with TEAE: Injury, poisoning and procedural complications (150 μg, N = 6): 0 | Subjects with TEAE: Metabolism and nutrition disorders (150 μg, N = 6): 2 (33.3%) | Subjects with TEAE: Musculoskeletal and connective tissue disorders (150 μg, N = 6): 0 | Subjects with TEAE: Musculoskeletal chest pain (150 μg, N = 6): 0 | Subjects with TEAE: Nasopharyngitis (150 μg, N = 6): 0 | Subjects with TEAE: Nausea (150 μg, N = 6): 4 (66.7%) | Subjects with TEAE: Nervous system disorders (150 μg, N = 6): 2 (33.3%) | Subjects with TEAE: Oropharyngeal pain (150 μg, N = 6): 1 (16.7%) | Subjects with TEAE: Procedural dizziness (150 μg, N = 6): 0 | Subjects with TEAE: Respiratory, thoracic and mediastinal disorders (150 μg, N = 6): 1 (16.7%) | Subjects with TEAE: Seasonal allergy (150 μg, N = 6): 0 | Subjects with TEAE: Ventricular extrasystoles (150 μg, N = 6): 0 | Subjects with TEAE: Vomiting (150 μg, N = 6): 4 (66.7%) | TEAE: Subject with at least one event (150 μg, N = 6): 5 (83.3%) | subjects with vomiting (300 μg single dose): 5 subjects | tolerability (300 μg single dose): not tolerated | vomiting episodes (300 μg single dose): Thirty | subjects with significant vomiting (300 μg single dose (5 of 6 subjects)): 83.3% | Subjects with TEAE: Abdominal distension (300 μg, N = 6): 0 | Subjects with TEAE: Abdominal pain (300 μg, N = 6): 0 | Subjects with TEAE: Application site erosion (300 μg, N = 6): 0 | Subjects with TEAE: Arrhythmia (300 μg, N = 6): 0 | Subjects with TEAE: Atrioventricular block second degree (300 μg, N = 6): 0 | Subjects with TEAE: Cardiac Disorders (300 μg, N = 6): 1 (16.7%) | Subjects with TEAE: Diarrhoea (300 μg, N = 6): 0 | Subjects with TEAE: Dizziness (300 μg, N = 6): 1 (16.7%) | Subjects with TEAE: Gastrointestinal Disorders (300 μg, N = 6): 5 (83.3%) | Subjects with TEAE: Headache (300 μg, N = 6): 0 | Subjects with TEAE: Immune System Disorders (300 μg, N = 6): 0 | Subjects with TEAE: Infections and infestations (300 μg, N = 6): 0 | Subjects with TEAE: Injury associated with device (300 μg, N = 6): 1 (16.7%) | Subjects with TEAE: Injury, poisoning and procedural complications (300 μg, N = 6): 0 | Subjects with TEAE: Metabolism and nutrition disorders (300 μg, N = 6): 0 | Subjects with TEAE: Musculoskeletal and connective tissue disorders (300 μg, N = 6): 0 | Subjects with TEAE: Musculoskeletal chest pain (300 μg, N = 6): 0 | Subjects with TEAE: Nasopharyngitis (300 μg, N = 6): 0 | Subjects with TEAE: Nausea (300 μg, N = 6): 3 (50.0%) | Subjects with TEAE: Nervous system disorders (300 μg, N = 6): 1 (16.7%) | Subjects with TEAE: Oropharyngeal pain (300 μg, N = 6): 0 | Subjects with TEAE: Procedural dizziness (300 μg, N = 6): 0 | Subjects with TEAE: Respiratory, thoracic and mediastinal disorders (300 μg, N = 6): 0 | Subjects with TEAE: Seasonal allergy (300 μg, N = 6): 0 | Subjects with TEAE: Ventricular extrasystoles (300 μg, N = 6): 1 (16.7%) | Subjects with TEAE: Vomiting (300 μg, N = 6): 5 (83.3%) | TEAE: Subject with at least one event (300 μg, N = 6): 5 (83.3%) | Median diastolic BP maximum post dose change (Dose (µg) 5): 13 mm Hg | Number of subjects with vomiting (Dose (µg) 5): 0 (0) | vomiting episodes (Dose (µg) 5): 0 (0) | Median diastolic BP maximum post dose change (Dose (µg) 10): 8 mm Hg | Number of subjects with vomiting (Dose (µg) 10): 0 (0) | vomiting episodes (Dose (µg) 10): 0 (0) | Median diastolic BP maximum post dose change (Dose (µg) 30): 10.5 mm Hg | Number of subjects with vomiting (Dose (µg) 30): 0 (0) | vomiting episodes (Dose (µg) 30): 0 (0) | Median diastolic BP maximum post dose change (Dose (µg) 100): 16 mm Hg | Number of subjects with vomiting (Dose (µg) 100): 1 (1) | vomiting episodes (Dose (µg) 100): 1 (1) | Median diastolic BP maximum post dose change (Dose (µg) 150): 15 mm Hg | Number of subjects with vomiting (Dose (µg) 150): 4 | vomiting episodes (Dose (µg) 150): 9 | Median diastolic BP maximum post dose change (Dose (µg) 300): 19 mm Hg | Number of subjects with vomiting (Dose (µg) 300): 5 | vomiting episodes (Dose (µg) 300): 30 | Subjects with TEAE: Abdominal distension (Total G933, N = 36): 2 (5.6%) | Subjects with TEAE: Abdominal pain (Total G933, N = 36): 1 (2.8%) | Subjects with TEAE: Application site erosion (Total G933, N = 36): 1 (2.8%) | Subjects with TEAE: Arrhythmia (Total G933, N = 36): 1 (2.8%) | Subjects with TEAE: Atrioventricular block second degree (Total G933, N = 36): 1 (2.8%) | Subjects with TEAE: Cardiac Disorders (Total G933, N = 36): 3 (8.3%) | Subjects with TEAE: Decreased appetite (Total G933, N = 36): 2 (5.6%) | Subjects with TEAE: Diarrhoea (Total G933, N = 36): 1 (2.8%) | Subjects with TEAE: Dizziness (Total G933, N = 36): 5 (13.9%) | Subjects with TEAE: Gastrointestinal Disorders (Total G933, N = 36): 12 (33.3%) | Subjects with TEAE: Headache (Total G933, N = 36): 4 (11.1%) | Subjects with TEAE: Immune System Disorders (Total G933, N = 36): 1 (2.8%) | Subjects with TEAE: Infections and infestations (Total G933, N = 36): 1 (2.8%) | Subjects with TEAE: Injury associated with device (Total G933, N = 36): 1 (2.8%) | Subjects with TEAE: Injury, poisoning and procedural complications (Total G933, N = 36): 1 (2.8%) | Subjects with TEAE: Metabolism and nutrition disorders (Total G933, N = 36): 2 (5.6%) | Subjects with TEAE: Musculoskeletal and connective tissue disorders (Total G933, N = 36): 1 (2.8%) | Subjects with TEAE: Musculoskeletal chest pain (Total G933, N = 36): 1 (2.8%) | Subjects with TEAE: Nasopharyngitis (Total G933, N = 36): 1 (2.8%) | Subjects with TEAE: Nausea (Total G933, N = 36): 8 (22.2%) | Subjects with TEAE: Nervous system disorders (Total G933, N = 36): 7 (19.4%) | Subjects with TEAE: Oropharyngeal pain (Total G933, N = 36): 1 (2.8%) | Subjects with TEAE: Procedural dizziness (Total G933, N = 36): 1 (2.8%) | Subjects with TEAE: Respiratory, thoracic and mediastinal disorders (Total G933, N = 36): 1 (2.8%) | Subjects with TEAE: Seasonal allergy (Total G933, N = 36): 1 (2.8%) | Subjects with TEAE: Ventricular extrasystoles (Total G933, N = 36): 1 (2.8%) | Subjects with TEAE: Vomiting (Total G933, N = 36): 10 (27.8%) | TEAE: Subject with at least one event (Total G933, N = 36): 21 (58.3%) | subjects who experienced vomiting (all single doses): 10 subjects | vomiting episodes, total (all single doses): 40 episodes | anti-drug antibody (ADA) positive subjects (baseline or post-baseline): No subjects were ADA positive | CL/f (single dose 300 μg, geometric mean): 0.79 L/h | AUC (0-last) [1]: 364.47 ng·h/mL | AUC (0-∞) [1]: 379.12 ng·h/mL | Cmax [1]: 20.98 ng/mL | t1/2 [1]: 9.54 h | Tmax (single dose 300 μg, plasma, median): 4.50 h | tolerability with respect to nausea, vomiting, tachycardia and blood pressure (single doses up to 150 μg): acceptable | Inter-subject variability (CV) for Cmax and AUC0-∞ (single sc dose): 3-37% | median tmax (single sc dose, 300 μg): 4.5 h | geometric mean t1/2 (single sc dose, healthy volunteers): 10 to 12 h

Source: patent publication US20200354426A1 (MEDIMMUNE LIMITED, priority 2016, published 2020)
